As a reminder, the inhibition is the share of the control response that was lost under treatment.

Sequences of proteins named here, by UniProt entry; tags and fusion partners are left off. A change or cut given only in a name is not applied to a line headed by its entry.
UniProt O70528: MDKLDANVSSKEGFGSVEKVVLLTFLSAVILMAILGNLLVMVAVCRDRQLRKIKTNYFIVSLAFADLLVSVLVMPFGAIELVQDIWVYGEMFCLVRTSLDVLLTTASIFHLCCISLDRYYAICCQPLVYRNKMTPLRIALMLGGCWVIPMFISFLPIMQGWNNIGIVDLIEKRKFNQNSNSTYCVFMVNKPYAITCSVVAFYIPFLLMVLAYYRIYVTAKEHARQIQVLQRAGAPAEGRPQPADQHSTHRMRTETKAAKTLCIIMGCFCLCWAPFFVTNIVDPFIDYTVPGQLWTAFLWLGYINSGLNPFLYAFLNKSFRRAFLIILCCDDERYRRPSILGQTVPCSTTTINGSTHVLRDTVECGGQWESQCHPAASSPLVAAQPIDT

The values that follow come from ChEMBL document CHEMBL2176996, “Synthesis and structure-affinity relationships of selective high-affinity 5-HT(4) receptor antagonists: application to the design of new potential single photon emission computed tomography tracers” (J Med Chem, 2012).

Experiment [1] addresses 5-hydroxytryptamine receptor 4 (Cavia porcellus) (UniProt O70528). The experiment is described as follows: Displacement of [3H]GR113808 from 5HT4R in guinea pig striatal membranes at 1 uM. It counts as cell membranes. As to conditions: Striatum, Membrane. In a few lines:
(§1)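 Native 5-HT4R in male guinea pig striatal membranes (HEPES 50 mM pH 7.4); 600 µg membrane incubated in duplicate with [3H]GR 113808 at 0.1 nM final, 37 °C, 30 min; filtration on PEI-soaked GF/B filters, cold buffer washes.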
(In general: Displacement assays read how much labelled ligand stays bound in the presence of the test substance.)

Experiment [2] has the same target. As to the kind of experiment: Displacement of [3H]GR113808 from 5HT4R in guinea pig striatal membranes at 10 nM. It counts as cell membranes. As to conditions: Striatum, Membrane. The procedure, abridged: as §1

Turning to `CCCN1CCC(COc2nc3cc(C)ccc3c3ccccc23)CC1`, the inhibition was 65% in experiment [1] and 30% in experiment [2].

For `CCCN1CCC(COc2nc3cc(F)ccc3c3ccccc23)CC1`, the inhibition in experiment [2] came to 14%.
